Measured values published in article PMC7488488 (Acta Pharmaceutica Sinica. B, 2019).

Amino acid sequences for entries named in this document (tags omitted).
UniProt Q00987, whole entry: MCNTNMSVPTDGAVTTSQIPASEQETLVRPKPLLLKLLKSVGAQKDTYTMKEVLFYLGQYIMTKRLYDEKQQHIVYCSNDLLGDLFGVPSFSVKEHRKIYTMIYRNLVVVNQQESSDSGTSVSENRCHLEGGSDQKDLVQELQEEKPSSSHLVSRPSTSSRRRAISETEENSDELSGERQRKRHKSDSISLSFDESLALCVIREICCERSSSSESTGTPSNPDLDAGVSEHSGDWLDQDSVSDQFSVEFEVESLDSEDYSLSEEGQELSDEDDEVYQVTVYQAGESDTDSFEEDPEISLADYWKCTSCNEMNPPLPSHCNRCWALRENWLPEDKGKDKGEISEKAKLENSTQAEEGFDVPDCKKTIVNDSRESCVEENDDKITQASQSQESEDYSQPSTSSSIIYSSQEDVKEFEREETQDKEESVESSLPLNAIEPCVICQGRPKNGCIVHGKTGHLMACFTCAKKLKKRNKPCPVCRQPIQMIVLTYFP

Molecular target: MDM2 (Homo sapiens, UniProt Q00987)
Experiment: TR-FRET
Format: binding
Conditions: mean ± SD (n = 3)

Inhibition rate at 1.0 μmol/L, MDM2: 86.9 ± 9.3%
Compound: COc1ccc(C2=N[C@@H](c3ccc(Cl)cc3)[C@@H](c3ccc(Cl)cc3)N2C(=O)N2CCNC(=O)C2)c(OC(C)C)c1 [Nutlin-3a, nutlin-3a, reference compound]
